{
  "source": "ChEMBL document CHEMBL4038344",
  "about": "“Novel Diarylurea Based Allosteric Modulators of the Cannabinoid CB1 Receptor: Evaluation of Importance of 6-Pyrrolidinylpyridinyl Substitution” (J Med Chem, 2017)",
  "target": "Cannabinoid receptor 1 (Mus musculus) (UniProt P47746)",
  "test": "PAM antagonist activity at CB1 receptor in CD-1 mouse cerebellar membranes assessed as inhibition of CP55,940-induced [35S]GTPgammaS binding after 60 mins",
  "settings": "Cerebellum, Membrane",
  "data": [
    {"smiles": "O=C(Nc1ccc(Cl)cc1)Nc1cccc(-c2cccc(N3CCCC3)n2)c1", "values": [
      {"measurement": "inhibition", "value": "Dose-dependent effect"}
    ]}
  ]
}
